In patent US20240287457A1, “COMPOSITIONS AND CELL CULTURE MEDIA FOR INCREASING NEUTROPHIL LIFESPAN” (THE CHILDREN'S MEDICAL CENTER CORPORATION, priority 2021, published 2024):

How the values were obtained:
murine neutrophils = assay: In vitro neutrophil death / survival of cultured murine neutrophils; format: cell-based, mouse
human neutrophils = assay: In vitro neutrophil death / survival of cultured human neutrophils

SMILES | Neutrophil survival after 3 days - normalized to fresh neutrophils (100) (murine neutrophils) | Neutrophil survival after 3 days - normalized to fresh neutrophils (100) (human neutrophils)
CC(=O)N[C@@H](CC(C)C)C(=O)N[C@@H](CCC(=O)O)C(=O)N[C@@H](Cc1cnc[nH]1)C(=O)N[C@H](C=O)CC(=O)O [Ac-LEHD-CHO] (Ac-LEHD-aldehyde) | <10 | <25
CC[C@H](C)[C@H](NC(=O)OCc1ccccc1)C(=O)N[C@@H](CCC(=O)OC)C(=O)N[C@H](C(=O)N[C@@H](CC(=O)OC)C(=O)CF)[C@@H](C)O [Z-IETD-FMK] (Cbz-IE(OMe)TD(OMe)-CH2F) | <10 | <25
COC(=O)C[C@H](NC(=O)[C@H](C)NC(=O)[C@@H](NC(=O)[C@H](Cc1ccc(O)cc1)NC(=O)OCc1ccccc1)C(C)C)C(=O)CF [Z-YVAD-FMK] | <10 | <25
c1ccc2c(c1)[I+]c1ccccc1-2 [DPI, Diphenyleneiodonium chloride] | <10 | <25
CC[C@H](C)[C@H](NC(=O)[C@H](CCC(=O)OC)NC(=O)[C@@H](NC(=O)OCc1ccccc1)C(C)C)C(=O)N[C@@H](CC(=O)OC)C(=O)CF [Z-VEID-FMK] (Cbz-VE(OMe)ID(OMe)-CH2F) | – | <25

Where a SMILES comes first, the peptide text is derived from it. The star is where a group is joined. Cbz = O=C(OCc1ccccc1)*; CH2F = FC*
